Experimental data as given in PMC12142581.
Values joined by “and” are separate entries in the source; they are usually repeats but may differ in a detail not shown here. Identical values can stand only once. Like-named read-outs stand apart in the source and are kept apart here.

The chains behind the UniProt entries cited, without tags or fusion partners. Where a name states a change or a piece, a line headed by the entry shows the natural chain unless it says otherwise.
UniProt Q06278: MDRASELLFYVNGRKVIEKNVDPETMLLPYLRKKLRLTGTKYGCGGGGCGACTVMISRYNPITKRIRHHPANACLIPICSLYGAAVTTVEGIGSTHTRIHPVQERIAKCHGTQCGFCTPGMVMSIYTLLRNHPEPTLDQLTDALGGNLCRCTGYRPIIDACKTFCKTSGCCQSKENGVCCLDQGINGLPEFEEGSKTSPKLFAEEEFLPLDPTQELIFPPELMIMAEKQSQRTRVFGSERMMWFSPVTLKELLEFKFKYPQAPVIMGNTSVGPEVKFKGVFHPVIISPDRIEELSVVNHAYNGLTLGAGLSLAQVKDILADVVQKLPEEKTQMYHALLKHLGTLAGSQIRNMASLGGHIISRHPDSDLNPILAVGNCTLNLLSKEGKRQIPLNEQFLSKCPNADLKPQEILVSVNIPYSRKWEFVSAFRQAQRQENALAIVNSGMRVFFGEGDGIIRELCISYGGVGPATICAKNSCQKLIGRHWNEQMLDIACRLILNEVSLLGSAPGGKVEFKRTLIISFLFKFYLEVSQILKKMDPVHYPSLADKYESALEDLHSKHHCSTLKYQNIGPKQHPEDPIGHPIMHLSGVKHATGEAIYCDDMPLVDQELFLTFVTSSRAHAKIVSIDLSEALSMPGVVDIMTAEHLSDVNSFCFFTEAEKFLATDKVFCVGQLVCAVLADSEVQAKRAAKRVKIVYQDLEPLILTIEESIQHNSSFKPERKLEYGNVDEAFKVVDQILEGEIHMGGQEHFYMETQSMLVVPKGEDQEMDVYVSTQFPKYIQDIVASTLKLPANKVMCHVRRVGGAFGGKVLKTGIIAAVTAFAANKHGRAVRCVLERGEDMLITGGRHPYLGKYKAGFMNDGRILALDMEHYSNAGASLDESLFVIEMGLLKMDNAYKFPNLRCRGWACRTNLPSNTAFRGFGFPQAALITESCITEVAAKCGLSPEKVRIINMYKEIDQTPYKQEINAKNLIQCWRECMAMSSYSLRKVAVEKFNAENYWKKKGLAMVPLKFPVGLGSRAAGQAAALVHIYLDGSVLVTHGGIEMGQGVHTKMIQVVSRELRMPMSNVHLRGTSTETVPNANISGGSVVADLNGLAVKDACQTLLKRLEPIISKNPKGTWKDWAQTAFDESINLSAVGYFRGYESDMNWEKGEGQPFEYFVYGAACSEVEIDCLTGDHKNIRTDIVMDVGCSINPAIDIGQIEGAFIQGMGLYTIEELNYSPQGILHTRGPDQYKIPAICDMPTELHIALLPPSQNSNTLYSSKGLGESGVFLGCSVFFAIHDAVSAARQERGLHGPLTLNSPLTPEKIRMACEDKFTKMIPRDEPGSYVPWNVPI
UniProt Q5FB27: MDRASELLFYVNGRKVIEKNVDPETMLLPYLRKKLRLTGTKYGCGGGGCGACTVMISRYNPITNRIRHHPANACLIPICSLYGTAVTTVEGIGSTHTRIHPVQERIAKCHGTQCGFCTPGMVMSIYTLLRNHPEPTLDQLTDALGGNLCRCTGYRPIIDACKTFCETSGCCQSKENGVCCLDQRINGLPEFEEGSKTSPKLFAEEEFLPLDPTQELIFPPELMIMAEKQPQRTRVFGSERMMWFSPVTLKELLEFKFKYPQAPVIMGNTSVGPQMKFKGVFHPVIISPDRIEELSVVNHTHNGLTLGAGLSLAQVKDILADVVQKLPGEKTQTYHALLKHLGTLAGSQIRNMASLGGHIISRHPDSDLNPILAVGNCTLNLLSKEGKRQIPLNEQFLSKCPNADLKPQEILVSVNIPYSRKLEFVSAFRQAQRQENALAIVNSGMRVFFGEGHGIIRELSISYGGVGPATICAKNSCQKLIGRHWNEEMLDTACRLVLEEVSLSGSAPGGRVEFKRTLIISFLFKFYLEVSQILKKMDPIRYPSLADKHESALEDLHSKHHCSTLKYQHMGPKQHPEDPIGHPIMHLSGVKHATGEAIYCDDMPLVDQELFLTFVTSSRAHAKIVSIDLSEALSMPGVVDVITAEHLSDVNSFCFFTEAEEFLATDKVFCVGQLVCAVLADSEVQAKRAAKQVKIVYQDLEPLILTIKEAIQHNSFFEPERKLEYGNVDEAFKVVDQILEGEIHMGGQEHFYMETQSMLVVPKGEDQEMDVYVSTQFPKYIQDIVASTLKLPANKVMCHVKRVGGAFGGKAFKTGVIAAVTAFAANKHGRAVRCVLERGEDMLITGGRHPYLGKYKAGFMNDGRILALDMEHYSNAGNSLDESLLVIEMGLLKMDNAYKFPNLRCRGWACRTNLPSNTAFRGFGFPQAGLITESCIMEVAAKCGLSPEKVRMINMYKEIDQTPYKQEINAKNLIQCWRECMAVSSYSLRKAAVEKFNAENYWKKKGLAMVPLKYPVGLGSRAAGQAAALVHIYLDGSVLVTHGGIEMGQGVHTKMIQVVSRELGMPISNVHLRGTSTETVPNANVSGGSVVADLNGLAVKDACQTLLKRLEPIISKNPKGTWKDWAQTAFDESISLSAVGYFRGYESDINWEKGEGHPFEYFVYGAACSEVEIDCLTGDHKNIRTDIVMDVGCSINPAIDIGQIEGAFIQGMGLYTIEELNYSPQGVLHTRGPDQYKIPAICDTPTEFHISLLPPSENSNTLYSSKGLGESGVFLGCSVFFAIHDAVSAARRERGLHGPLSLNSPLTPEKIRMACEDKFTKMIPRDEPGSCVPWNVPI
UniProt P08684, whole entry, looked up: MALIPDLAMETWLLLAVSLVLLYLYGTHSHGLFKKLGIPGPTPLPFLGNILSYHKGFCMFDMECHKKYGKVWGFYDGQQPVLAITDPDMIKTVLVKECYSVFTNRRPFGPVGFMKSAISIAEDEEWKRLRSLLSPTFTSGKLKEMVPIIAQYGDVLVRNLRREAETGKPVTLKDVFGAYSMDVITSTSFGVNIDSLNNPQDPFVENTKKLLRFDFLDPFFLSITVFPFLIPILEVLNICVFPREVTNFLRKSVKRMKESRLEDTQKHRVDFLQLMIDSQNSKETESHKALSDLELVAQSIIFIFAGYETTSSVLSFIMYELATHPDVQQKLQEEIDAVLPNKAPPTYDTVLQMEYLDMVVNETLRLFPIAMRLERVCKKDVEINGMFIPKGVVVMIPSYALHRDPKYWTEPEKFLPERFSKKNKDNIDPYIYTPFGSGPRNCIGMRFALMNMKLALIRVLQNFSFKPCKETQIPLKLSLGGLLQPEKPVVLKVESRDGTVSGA
UniProt P05177, whole entry, looked up: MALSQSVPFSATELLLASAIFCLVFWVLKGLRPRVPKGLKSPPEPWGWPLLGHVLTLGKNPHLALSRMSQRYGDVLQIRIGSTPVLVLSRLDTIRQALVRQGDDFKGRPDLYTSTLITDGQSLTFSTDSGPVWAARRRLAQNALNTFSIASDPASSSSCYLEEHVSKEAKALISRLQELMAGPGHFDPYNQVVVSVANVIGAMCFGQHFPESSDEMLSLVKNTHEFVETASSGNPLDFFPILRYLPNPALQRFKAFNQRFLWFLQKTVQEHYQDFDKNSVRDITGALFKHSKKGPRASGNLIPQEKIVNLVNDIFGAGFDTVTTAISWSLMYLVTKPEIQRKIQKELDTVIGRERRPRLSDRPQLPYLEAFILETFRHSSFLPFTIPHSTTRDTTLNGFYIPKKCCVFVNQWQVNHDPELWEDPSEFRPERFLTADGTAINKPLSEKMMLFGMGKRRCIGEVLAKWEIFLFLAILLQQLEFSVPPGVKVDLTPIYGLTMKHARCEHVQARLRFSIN
UniProt P33261, whole entry, looked up: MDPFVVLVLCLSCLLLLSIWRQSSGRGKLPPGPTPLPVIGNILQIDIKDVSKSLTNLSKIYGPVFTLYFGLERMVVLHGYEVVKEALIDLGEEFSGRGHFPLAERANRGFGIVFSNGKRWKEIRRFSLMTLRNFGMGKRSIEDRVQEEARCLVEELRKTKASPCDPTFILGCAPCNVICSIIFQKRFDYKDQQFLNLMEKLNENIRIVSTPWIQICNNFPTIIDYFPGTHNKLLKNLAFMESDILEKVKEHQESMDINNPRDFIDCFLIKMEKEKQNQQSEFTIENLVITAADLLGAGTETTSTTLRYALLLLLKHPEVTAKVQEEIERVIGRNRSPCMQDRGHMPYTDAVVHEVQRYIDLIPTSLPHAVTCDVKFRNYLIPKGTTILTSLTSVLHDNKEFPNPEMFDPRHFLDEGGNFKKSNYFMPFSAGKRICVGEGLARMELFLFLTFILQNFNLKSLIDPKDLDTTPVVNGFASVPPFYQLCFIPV
UniProt P10635, whole entry, looked up: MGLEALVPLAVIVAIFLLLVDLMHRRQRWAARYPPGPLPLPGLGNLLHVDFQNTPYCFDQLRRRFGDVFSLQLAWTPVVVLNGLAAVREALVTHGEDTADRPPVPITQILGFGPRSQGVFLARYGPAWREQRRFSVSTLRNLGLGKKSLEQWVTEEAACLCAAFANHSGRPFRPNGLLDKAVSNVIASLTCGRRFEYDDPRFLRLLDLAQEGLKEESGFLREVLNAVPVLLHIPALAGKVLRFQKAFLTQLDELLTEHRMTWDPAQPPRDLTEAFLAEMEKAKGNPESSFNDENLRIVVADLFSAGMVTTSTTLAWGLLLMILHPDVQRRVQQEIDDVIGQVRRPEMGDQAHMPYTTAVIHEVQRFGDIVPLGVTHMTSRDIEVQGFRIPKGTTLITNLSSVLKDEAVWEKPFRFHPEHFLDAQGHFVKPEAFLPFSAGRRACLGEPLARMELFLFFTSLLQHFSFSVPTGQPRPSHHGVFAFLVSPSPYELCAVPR
UniProt P10632, whole entry, looked up: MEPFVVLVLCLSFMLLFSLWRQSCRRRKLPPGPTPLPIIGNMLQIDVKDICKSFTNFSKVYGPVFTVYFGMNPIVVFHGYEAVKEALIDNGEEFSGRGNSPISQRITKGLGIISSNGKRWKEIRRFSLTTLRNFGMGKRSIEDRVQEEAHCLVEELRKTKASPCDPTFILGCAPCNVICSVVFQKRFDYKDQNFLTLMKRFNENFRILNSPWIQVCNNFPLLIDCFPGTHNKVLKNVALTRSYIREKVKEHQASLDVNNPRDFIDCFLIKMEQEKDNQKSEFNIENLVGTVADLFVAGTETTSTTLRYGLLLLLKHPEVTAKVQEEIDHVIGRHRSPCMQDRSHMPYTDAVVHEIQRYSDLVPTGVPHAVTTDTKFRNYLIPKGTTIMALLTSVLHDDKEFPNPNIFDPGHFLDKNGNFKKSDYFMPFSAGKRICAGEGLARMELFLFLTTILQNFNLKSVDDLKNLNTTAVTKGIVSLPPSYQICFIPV
UniProt P08183, whole entry, looked up: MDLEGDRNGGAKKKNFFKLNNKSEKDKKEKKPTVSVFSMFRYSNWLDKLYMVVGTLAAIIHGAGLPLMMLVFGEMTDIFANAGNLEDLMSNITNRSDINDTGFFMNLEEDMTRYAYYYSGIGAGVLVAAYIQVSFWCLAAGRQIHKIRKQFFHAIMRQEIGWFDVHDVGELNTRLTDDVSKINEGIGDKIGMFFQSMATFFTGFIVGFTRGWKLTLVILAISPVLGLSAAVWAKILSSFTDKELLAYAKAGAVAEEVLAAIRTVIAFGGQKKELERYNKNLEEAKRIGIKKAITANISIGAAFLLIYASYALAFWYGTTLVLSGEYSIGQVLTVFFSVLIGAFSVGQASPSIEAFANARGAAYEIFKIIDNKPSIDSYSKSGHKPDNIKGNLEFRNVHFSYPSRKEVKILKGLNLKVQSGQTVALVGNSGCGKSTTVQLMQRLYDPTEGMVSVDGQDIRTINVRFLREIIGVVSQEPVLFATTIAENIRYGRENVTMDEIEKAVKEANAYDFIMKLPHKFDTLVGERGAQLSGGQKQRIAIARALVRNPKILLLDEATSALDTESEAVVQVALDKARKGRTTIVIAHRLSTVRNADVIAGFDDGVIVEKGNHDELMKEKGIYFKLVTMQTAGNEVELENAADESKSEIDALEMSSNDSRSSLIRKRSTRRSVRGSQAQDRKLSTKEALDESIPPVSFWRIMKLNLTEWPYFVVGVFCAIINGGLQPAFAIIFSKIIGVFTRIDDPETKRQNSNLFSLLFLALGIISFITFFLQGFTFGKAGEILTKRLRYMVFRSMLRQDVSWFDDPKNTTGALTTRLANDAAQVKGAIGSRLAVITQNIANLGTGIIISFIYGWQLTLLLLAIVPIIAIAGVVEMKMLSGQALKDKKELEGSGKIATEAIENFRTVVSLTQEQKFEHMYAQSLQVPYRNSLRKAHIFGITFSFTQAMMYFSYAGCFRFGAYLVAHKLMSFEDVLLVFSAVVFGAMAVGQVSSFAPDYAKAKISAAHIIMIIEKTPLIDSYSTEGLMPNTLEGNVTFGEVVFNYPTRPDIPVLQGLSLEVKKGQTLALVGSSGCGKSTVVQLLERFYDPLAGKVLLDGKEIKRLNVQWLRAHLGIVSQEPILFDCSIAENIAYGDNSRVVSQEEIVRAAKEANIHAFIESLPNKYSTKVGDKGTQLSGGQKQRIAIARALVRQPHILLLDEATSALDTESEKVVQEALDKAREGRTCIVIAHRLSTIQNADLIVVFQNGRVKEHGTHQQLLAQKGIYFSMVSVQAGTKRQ

Assays:
cardiac ion channels = assay: Cardiac Ion Channel Panel (QPatch HT), whole panel; details: 10 μM
human M4 (hM4) = human M4 (hM4) (Homo sapiens, UniProt P08173); assay: Calcium mobilization assay, hM4/Gqi5-CHO cells, EC20 acetylcholine
BCRP = BCRP (Homo sapiens, UniProt Q9UNQ0); assay: Permeability and active transport in BCRP-transfected MDCKII cells
[1] = Metabolic stability in cryopreserved hepatocytes; details: for clearance / intrinsic clearance: up to 1 μM; for CLhep: hepatocytes
[2] = Metabolic stability in intestinal microsomes; details: 0.5 µM, 60 min
[3] = molecular target: aldehyde oxidase (AO), human liver S9 (Homo sapiens, UniProt Q06278); assay: Aldehyde oxidase involvement, liver S9
[4] = molecular target: aldehyde oxidase (AO), monkey liver S9 (Macaca fascicularis, UniProt Q5FB27); assay: Aldehyde oxidase involvement, liver S9
CYP3A4 = CYP3A4 (Homo sapiens, UniProt P08684); assay: Cytochrome P450 inhibition, pooled human liver microsomes
CYP1A2 [5] = molecular target: CYP1A2 (Homo sapiens, UniProt P05177); assay: as above; details: read-out: CYP1A2 IC50; direct inhibition
CYP2C9 = CYP2C9 (Homo sapiens, UniProt P11712); assay: as above
CYP2B6 = CYP2B6 (Homo sapiens, UniProt P20813); assay: as above; details: read-out: CYP2B6 IC50; direct inhibition
CYP2C19 = CYP2C19 (Homo sapiens, UniProt P33261); assay: as above
CYP2D6 = CYP2D6 (Homo sapiens, UniProt P10635); assay: as above; details: read-out: CYP2D6 IC50; direct inhibition
CYP2C8 = CYP2C8 (Homo sapiens, UniProt P10632); assay: as above
[6] = Gastro-Plus predicted parameters for PBPK
P-gp (MDR1) = P-gp (MDR1) (Homo sapiens, UniProt P08183); assay: Permeability and active transport in MDR1-transfected MDCKII cells
human PXR = human PXR (Homo sapiens, UniProt O75469); assay: Reporter gene activation study; details: 4 µM
human CAR = human CAR (Homo sapiens, UniProt Q14994); assay: Reporter gene activation study; details: 10 μM
cytochrome P450 enzymes = assay: Cytochrome P450 inhibition (direct and time-dependent), pooled human liver microsomes; details: read-out: CYP inhibition IC50's; all CYPs tested
CYP1A2 [7] = assay: CYP induction, gene expression (mRNA) in cryopreserved human hepatocytes
[8] = system: conditioned avoidance response; assay: Conditioned avoidance response (CAR)
[9] = In vitro plasma protein binding; details: average across test concentrations
[10] = Human PK and dose prediction, IVIVE approach

## Cc1nnc2sc3c(NCc4ccc(C(C)(C)O)cc4)ncnc3c2c1C
Cardiac ion channels
  inhibition across cardiac ion channel panel: < 13%
Human M4 (hM4); across species
  species differences in M4 activity: < 4 fold
Human M4 (hM4); normalized to 100 μM acetylcholine
  %AChMax: 91 % AChMax
BCRP; 1 µM, without BCRP inhibitor
  Papp A-B: 2.3 [1.7-3.0] cm/s x 10-6
  Papp B-A: 16 cm/s x 10-6
BCRP; MDCKII-BCRP
  permeability classification: moderate permeability
[1]; NHP hepatocytes
  clearance: 23.5 mL/min/kg
[1]; dog hepatocytes
  clearance: 38.3 mL/min/kg
[1]; dog, 0.1 µM
  CLhep: 38.2 ± 1.5 mL/min/kg
[1]; dog, 0.3 µM
  CLhep: 38.8 ± 2.1 mL/min/kg
[1]; dog, 1 µM
  CLhep: 38.3 ± 2.0 mL/min/kg
[1]; human, 0.1 µM
  CLhep: < 5.17 mL/min/kg
[1]; human, 0.3 µM
  CLhep: < 5.17 mL/min/kg
[1]; human, 1 µM
  CLhep: < 5.17 mL/min/kg
[1]; minipig, 0.1 µM
  CLhep: 14.8 ± 0.02 mL/min/kg
[1]; minipig, 0.3 µM
  CLhep: 13.7 ± 0.2 mL/min/kg
[1]; minipig, 1 µM
  CLhep: 14.3 ± 0.5 mL/min/kg
[1]; monkey, 0.1 µM
  CLhep: 23.5 ± 0.6 mL/min/kg
[1]; monkey, 0.3 µM
  CLhep: 22.0 ± 0.3 mL/min/kg
[1]; monkey, 1 µM
  CLhep: 23.5 ± 0.6 mL/min/kg
[1]; rat, 0.1 µM
  CLhep: 25.2 ± 0.6 mL/min/kg
[1]; rat, 0.3 µM
  CLhep: 21.8 ± 0.5 mL/min/kg
[1]; rat, 1 µM
  CLhep: 25.2 ± 0.4 mL/min/kg
[1]; human hepatocytes
  intrinsic clearance: < 5.17 mL/min/kg
[1]; minipig hepatocytes
  intrinsic clearance: 14.8 mL/min/kg
[1]; rat hepatocytes
  intrinsic clearance: 25.2 mL/min/kg
[2]; dog intestinal microsomes
  % compound remaining: > 90%
[2]; human intestinal microsomes
  % compound remaining: > 90%
[2]; monkey intestinal microsomes
  % compound remaining: > 90%
[2]; rat intestinal microsomes
  % compound remaining: > 90%
[3]; human liver S9
  turnover after 90 min: no turnover was observed
[3]; human liver S9, 1 µM, 90 min
  % test compound remaining: 100%
[4]; monkey liver S9
  turnover after 90 min: no turnover was observed
[4]; monkey liver S9, 1 µM, 90 min
  % test compound remaining: 100%
CYP3A4; read-out: CYP3A4-M IC50, direct inhibition
  IC50: > 15 µM
CYP3A4; read-out: CYP3A4-T IC50, direct inhibition
  IC50: > 15 µM
CYP3A4; read-out: CYP3A4 IC50, substrate not named
  IC50: > 15 µM
CYP1A2 [5]
  IC50: > 15 µM
CYP2C9; highest concentration
  decrease in formation of metabolite, CYP2C9: 49%
CYP2C9; read-out: CYP2C9 IC50, direct inhibition
  IC50: > 15 µM
CYP2B6
  IC50: > 15 µM
CYP2C19; highest concentration
  decrease in formation of metabolite, CYP2C19: 35%
CYP2C19; read-out: CYP2C19 IC50, direct inhibition
  IC50: > 15 µM
CYP2D6
  IC50: > 15 µM
CYP2C8; highest concentration
  decrease in formation of metabolite, CYP2C8: 39%
CYP2C8; read-out: CYP2C8 IC50, direct inhibition
  IC50: > 15 µM
[6]; dog
  Predicted plasma CLhepatic, metabolic: 11.7 mL/min/kg
[6]; human
  Predicted plasma CLhepatic, metabolic: 0.767 mL/min/kg
[6]; minipig
  Predicted plasma CLhepatic, metabolic: 3.17 mL/min/kg
[6]; monkey
  Predicted plasma CLhepatic, metabolic: 3.17 mL/min/kg
[6]; rat
  Predicted plasma CLhepatic, metabolic: 3.17 mL/min/kg
P-gp (MDR1); 0.5 µM, without P-gp inhibitor
  Papp B-A: 5.0 [4.1-6.0] cm/s x 10-6
P-gp (MDR1); PBPK input, Table S16
  MDCK-MDR1 A2B Papp: 9 ×10⁻⁶ cm/s
P-gp (MDR1); without inhibitor, unit inferred
  Papp A-B: 6.4 ×10⁻⁶ cm/s
Human PXR
  PXR activation: 2.0 fold of DMSO control
Human CAR
  CAR activation (tendency): 1.8 fold of DMSO control
Cytochrome P450 enzymes
  IC50: ≥ 15 µM
CYP1A2 [7]; 0.1 µM, donor 1
  CYP1A2 gene expression: 0.96 ± 0.08 fold of DMSO control
CYP1A2 [7]; 0.1 µM, donor 2
  CYP1A2 gene expression: 1.12 ± 0.09 fold of DMSO control
CYP1A2 [7]; 0.1 µM, donor 3
  CYP1A2 gene expression: 1.41 ± 0.23 fold of DMSO control
CYP1A2 [7]; 0.3 µM, donor 1
  CYP1A2 gene expression: 1.37 ± 0.36 fold of DMSO control
CYP1A2 [7]; 0.3 µM, donor 2
  CYP1A2 gene expression: 1.18 ± 0.08 fold of DMSO control
CYP1A2 [7]; 0.3 µM, donor 3
  CYP1A2 gene expression: 1.69 ± 0.22 fold of DMSO control
CYP1A2 [7]; 1 µM, donor 1
  CYP1A2 gene expression: 1.22 ± 0.05 fold of DMSO control
CYP1A2 [7]; 1 µM, donor 2
  CYP1A2 gene expression: 1.08 ± 0.04 fold of DMSO control
CYP1A2 [7]; 1 µM, donor 3
  CYP1A2 gene expression: 1.24 ± 0.05 fold of DMSO control
CYP1A2 [7]; 3 µM, donor 1
  CYP1A2 gene expression: 1.11 ± 0.06 fold of DMSO control
CYP1A2 [7]; 3 µM, donor 2
  CYP1A2 gene expression: 0.75 ± 0.06 fold of DMSO control
CYP1A2 [7]; 3 µM, donor 3
  CYP1A2 gene expression: 1.63 ± 0.18 fold of DMSO control
CYP1A2 [7]; 10 µM, donor 1
  CYP1A2 gene expression: 0.75 ± 0.07 fold of DMSO control
CYP1A2 [7]; 10 µM, donor 2
  CYP1A2 gene expression: 0.54 ± 0.03 fold of DMSO control
CYP1A2 [7]; 10 µM, donor 3
  CYP1A2 gene expression: 0.87 ± 0.05 fold of DMSO control
[8]; combined with threshold dose of risperidone (0.2 mg/kg)
  effect on avoidance and escape responses: affected avoidance and escape responses to a larger degree at lower doses
[8]; compound alone
  effect on avoidance and escape responses: only a moderate effect on avoidance and escape responses at 30 mg/kg
[9]; dog
  In vitro fup: 3.8 % free
[9]; human
  In vitro fup: 0.42 % free
[9]; minipig
  In vitro fup: 1.63 % free
[9]; monkey
  In vitro fup: 0.76 % free
[9]; rat
  In vitro fup: 0.78 % free
[10]; IVIVE
  predicted Oral Fabs: ~ 50%
  predicted human CLhep: 0.77 mL/min/kg
  predicted human Vss: 0.44 L/kg
  predicted human oral bioavailability (% F): 48%
  predicted human t1/2: 6.6 h
  predicted plasma CLhep: 0.767 mL/min/kg
[10]; IVIVE and PBPK, listed as VU6008055
  human target total plasma conc: 4200 ng/mL and 11162 nM
[10]; IVIVE, BID
  predicted twice daily dose: 640 mg
[10]; IVIVE, QD
  predicted once daily dose: 820 mg
